Earlier results as cited in patent US20070010438A1, “Tumor treatment using beta-sheet peptides and radiotherapy” (priority 2005, published 2007).

Settings: C3H mice; cited from earlier work

pimonidazole
plasma half-life: 30 min
